## Yeast mating assay B: variants of the scFv Ab-14

Reference: Li et al. 2023, doi:10.1038/s41467-023-39022-2. File: FLAb, binding data.

Target: peptide PDVDLGDISGINAS, taken from heptad repeat 2 (HR2) of SARS-CoV-2 spike.

Ab-14 is the parent antibody, in scFv form: VH, then the linker GGGGSGGGGSGGGGS, then VL. The light chain is unchanged in all variants.
VH: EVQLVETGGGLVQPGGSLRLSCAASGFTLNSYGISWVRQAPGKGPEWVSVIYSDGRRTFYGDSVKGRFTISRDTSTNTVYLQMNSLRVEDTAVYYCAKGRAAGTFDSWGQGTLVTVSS
VL: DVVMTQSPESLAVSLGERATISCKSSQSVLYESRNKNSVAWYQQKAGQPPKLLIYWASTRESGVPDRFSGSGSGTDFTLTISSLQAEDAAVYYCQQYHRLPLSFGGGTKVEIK

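The starting antibody came from a phage panning campaign against this peptide. This is the validation round: designs drawn from the data on random variants, tested in the same kind of assay. Group labels follow the data file (Ctrl: baseline library sampled from a position-specific scoring matrix, with some repeated check sequences; Rand: our label for a block that the file lists under HC and that is probably the random mutants of the ten best first-round binders; GP: Gaussian process model; GPLM: also part of the Gaussian process libraries; HC: hill climbing; Gen: genetic algorithm; Gibbs: Gibbs sampling; a sequence that several methods proposed may carry one label only). The assay is AlphaSeq: two haploid yeast populations carry antibody and antigen on their surface. Binding brings cells together so that they mate, and sequencing counts the barcode pairs among the diploids. Read counts were normalised to the haploid input and turned into Kd by a linear fit to BCL2-family pairs of known affinity, for each replicate. Each pool was mated in six replicate cultures.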

Substitutions are numbered in sequence along the VH above, starting at 1 (not Kabat). Variants here have at most six changes. Values are log10 of the apparent Kd in nM; lower means stronger binding. Averages over replicates are reported, and they cover detected replicates only. A pair that was not seen in that replicate is written "nd"; this usually means weak binding, but a binder can also be missed.

With T28D/G61V/S63A/A101Q [GP_Gibbs] the result was 1.84, 1.97, 2.12, 2.69, 1.64, 1.57 (mean 1.97).
With T28H/G61A/S63Q/R100Q/A101T [GP_Gibbs] the result was 1.43, 1.01, 1.03, 1.17, 1.75, 1.61 (mean 1.33).
With T28S/S31E/R100Q/S107K [GPLM_Gen] the result was 0.00, -0.18, -0.20, -0.29, -0.24, 0.00 (mean -0.15).
With L29R/S31D/R100Q/D106M [Ctrl] the result was nd, nd, nd, nd, nd, nd.
With T28D/G61A/A101T/S107D [GP_Gen] the result was 0.09, 0.10, 0.54, -0.14, -0.39, 0.36 (mean 0.09).
With N30D/S53A/D106V [GP_HC] the result was nd, nd, nd, nd, nd, nd.
With R56I/F59M/G61I/K65R/R100E/D106F [Ctrl] the result was nd, nd, nd, nd, nd, nd.
With S31D/S107P [Ctrl] the result was nd, 2.37, 1.54, nd, nd, nd (mean 1.95).
With T28N/G61A/A101T [GPLM_Gen] the result was 0.02, 0.22, -0.14, -0.28, -0.18, 0.37 (mean 0.00).
With S31E/A101V/S107L [GPLM_Gen] the result was 0.17, 0.21, 0.74, 0.40, 0.25, 0.20 (mean 0.33).
With G26M/R100H/A101V/S107T [GP_Gibbs] the result was 2.82, 2.12, 2.01, 1.82, 3.15, 2.60 (mean 2.42).
With T28D/R100H/S107W [GP_Gibbs] the result was nd, nd, nd, nd, nd, nd.
With R56Q/G61S/R100H [GP_HC] the result was 0.53, 0.48, 0.66, 0.39, 0.90, 0.07 (mean 0.50).
With T28W/A102T [Ctrl] the result was nd, nd, nd, nd, nd, nd.
With T28N/G61K/R100Q/A101V [GP_Gen] the result was 0.31, -0.09, -0.36, -0.20, -0.13, -0.02 (mean -0.08).
With T28E/S63M/R100K/A101T [GP_Gen] the result was nd, 0.90, 1.08, 0.85, nd, nd (mean 0.94).
With S31E/G61T/A101E/S107I [GP_HC] the result was 0.32, 0.63, 1.75, 0.28, 0.79, 1.40 (mean 0.86).
With T28N/S31E/G61T/A101S [GPLM_HC] the result was nd, nd, 1.86, 2.11, 2.82, 1.95 (mean 2.18).
With G61S/R100S [Ctrl+GPLM_Gen] the result was 1.11, 1.53, 1.86, nd, 0.92, nd; 0.48, 0.67, 0.51, 0.50, 0.46, 0.75 (mean 0.88).
With Y52M/S63A/A101Q/T104Q [Ctrl] the result was nd, nd, nd, nd, nd, nd.
With S31E/G33H/S35A/G61T/A101F [Rand] the result was nd, nd, nd, nd, nd, nd.
With Y32Q/F59A/G103A [Ctrl] the result was nd, nd, nd, nd, nd, nd.
With N30I/S31Q/G61E/G99Q/T104F [Rand] the result was nd, nd, nd, nd, nd, nd.
With G61S/R100M/A102V [GP_HC] the result was nd, 3.22, nd, nd, nd, nd.
With N30E/R100Q/S107T [GPLM_Gibbs] the result was 1.57, 1.71, 1.15, 0.92, 0.97, 1.06 (mean 1.23).
With F27K/T28S/F59A/G61A [GP_Gibbs] the result was nd, nd, nd, nd, nd, nd.
With G26K/S31E/G61T/A101I [GP_HC] the result was 1.77, nd, 1.40, 1.27, 1.61, 1.18 (mean 1.45).
With S31E/T58S/G61A/R100H/S107N [GP_HC] the result was 0.71, 0.77, 1.11, 0.88, 0.85, 0.71 (mean 0.84).
With S31E/G55L/F59V/G61T/A101F [Rand] the result was nd, nd, nd, nd, nd, nd.
With S31E/G61M/A101T/S107T [GP_HC] the result was 0.28, 0.94, 0.57, 0.37, 0.21, 0.27 (mean 0.44).
With T28E/S63N/A101T/S107T [GP_Gibbs] the result was 1.59, 1.49, 0.48, 0.48, 0.74, 0.66 (mean 0.91).
With F27N/T28N/R100S [Ctrl] the result was 2.28, nd, 2.30, nd, nd, nd (mean 2.29).
With T28S/G61S/S63A/A101T [GPLM_Gen] the result was 0.18, -0.19, 0.01, 0.41, -0.17, -0.01 (mean 0.04).
With T28S/G61A/T104K/D106M [GP_Gibbs] the result was nd, nd, nd, nd, nd, nd.
With T28S/G61S/R100N/A101V [GPLM_Gibbs] the result was -0.08, 0.17, -0.17, -0.46, -0.06, -0.03 (mean -0.11).
With S31E/G61T/A101T/S107A [GP_HC] the result was -0.01, -0.28, -0.34, -0.42, -0.15, -0.21 (mean -0.23).
With G103F/D106F [Ctrl] the result was nd, nd, nd, nd, nd, nd.
With G61I/A101N [Ctrl+GPLM_HC] the result was nd, nd, nd, nd, nd, nd; nd, 2.81, 1.82, nd, nd, nd (mean 2.32).
With T28E/S53A/S63R/A101T [GP_Gen] the result was 0.00, 0.94, -0.29, -0.59, -0.13, 0.11 (mean 0.01).
With T28E/G61S/R100H [GP_HC] the result was 1.63, 0.81, 0.85, 0.34, 0.26, 0.83 (mean 0.79).
With F59A/S63K [Ctrl] the result was 1.12, 1.22, 1.02, 2.32, 1.58, 1.24 (mean 1.42).
With A101L/S107Y [Ctrl] the result was 1.52, nd, nd, 2.15, 2.79, nd (mean 2.15).

Picked from the list: the 3 lowest averages where every replicate gave a value.

With S31E/G61T/A101T/S107A [GP_HC] the result was -0.01, -0.28, -0.34, -0.42, -0.15, -0.21 (mean -0.23).
With T28S/S31E/R100Q/S107K [GPLM_Gen] the result was 0.00, -0.18, -0.20, -0.29, -0.24, 0.00 (mean -0.15).
With T28S/G61S/R100N/A101V [GPLM_Gibbs] the result was -0.08, 0.17, -0.17, -0.46, -0.06, -0.03 (mean -0.11).

As a blank, each scFv also met three strains without target: over all heavy chain designs, 1% of these pairings were detected, typically at 2.08 and seldom below 0.84. Values of this round are not directly comparable with the first-round values of the same sequences. Of ten entries with the parent sequence, four were seen in most replicates (averages 0.34 to 2.37), three in one and three in none, so single entries are noisy. The authors' rule: three or more of the six replicates give a measured affinity, fewer mean a poor binder. A sequence that the file lists under several names has all its replicates listed entry by entry, parted by semicolons.